Earlier results, collected in patent publication US10028966B2 (Avalyn Pharma Inc., priority 2014, dated 2018).

System: patients carrying the ALK fusion gene
Conditions: nausea, vomiting, or diarrhea; cited from earlier work

C[C@@H](Oc1cc(-c2cnn(C3CCNCC3)c2)cnc1N)c1c(Cl)ccc(F)c1Cl [Crizotinib]
patients with at least one side effect: Approximately 50%
